From patent US9266883B2, “Ring-fused bicyclic pyridyl derivatives as FGFR4 inhibitors” (Novartis AG, priority 2013, dated 2016)

Sequences of proteins named here, by UniProt entry; tags and fusion partners are left off. A line that says so, or that is headed by a name, gives the form on record, which may keep a tag or linker.
UniProt P22455, other isoform, or with tags, fused parts or gaps: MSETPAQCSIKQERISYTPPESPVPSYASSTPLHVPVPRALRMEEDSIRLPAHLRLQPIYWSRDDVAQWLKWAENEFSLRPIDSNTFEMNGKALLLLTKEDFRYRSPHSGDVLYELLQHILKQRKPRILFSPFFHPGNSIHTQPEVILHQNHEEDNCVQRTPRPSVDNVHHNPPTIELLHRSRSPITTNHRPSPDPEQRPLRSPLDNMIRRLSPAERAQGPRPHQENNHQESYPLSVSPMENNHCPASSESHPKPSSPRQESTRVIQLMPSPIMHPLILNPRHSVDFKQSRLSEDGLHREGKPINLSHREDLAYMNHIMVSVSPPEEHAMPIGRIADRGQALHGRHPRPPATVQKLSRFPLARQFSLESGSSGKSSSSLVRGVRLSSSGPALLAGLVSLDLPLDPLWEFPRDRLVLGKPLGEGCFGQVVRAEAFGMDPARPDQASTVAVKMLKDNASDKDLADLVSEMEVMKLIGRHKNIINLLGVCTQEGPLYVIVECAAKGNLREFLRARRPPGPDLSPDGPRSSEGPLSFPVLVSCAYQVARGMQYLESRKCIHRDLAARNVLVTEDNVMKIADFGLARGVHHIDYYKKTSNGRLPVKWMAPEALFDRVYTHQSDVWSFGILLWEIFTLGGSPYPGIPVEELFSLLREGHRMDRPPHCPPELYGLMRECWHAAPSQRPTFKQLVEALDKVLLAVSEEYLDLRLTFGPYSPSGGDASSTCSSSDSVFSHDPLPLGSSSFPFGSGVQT

Target: Tel-FGFR4 (Homo sapiens (Human), UniProt P22455)
Assay: In vitro cellular kinase assay for FGFR4 (BaF3-Tel-FGFR4 cells, MSD capture ELISA of tyrosine phosphorylation)
Assay type: cell-based
Conditions: 1 hour incubation

IC50	Structure (SMILES)
79 nM	O=Cc1ccc2c(n1)N(C(=O)Nc1ncc(Cl)c(OC3CCOC3)n1)CCC2 (racemic) [Example 32, N-(5-chloro-4-((tetrahydrofuran-3-yl)oxy)pyrimidin-2-yl)-7-formyl-3,4-dihydro-1,8-naphthyridine-1(2H)-carboxamide]
35.5 nM	COCCNc1cc(NC(=O)N2CCCc3cc(N4CCC(C)C4=O)c(C=O)nc32)ncc1C#N (racemic) [Example 261, N-(5-cyano-4-((2-methoxyethyl)amino)pyridin-2-yl)-7-formyl-6-(3-methyl-2-oxopyrrolidin-1-yl)-3,4-dihydro-1,8-naphthyridine-1(2H)-carboxamide]
